Measurements as given in patent publication EP4825847A1, “NMDA RECEPTOR ANTAGONIST AND USE THEREOF” (dated 2026).
Counter-ions that a name gives are not always drawn.

Protein sequences, listed by entry. Tags and fused reporters are not part of them. Residues count along the entry.
UniProt Q12879, 23-1464 limits assumed: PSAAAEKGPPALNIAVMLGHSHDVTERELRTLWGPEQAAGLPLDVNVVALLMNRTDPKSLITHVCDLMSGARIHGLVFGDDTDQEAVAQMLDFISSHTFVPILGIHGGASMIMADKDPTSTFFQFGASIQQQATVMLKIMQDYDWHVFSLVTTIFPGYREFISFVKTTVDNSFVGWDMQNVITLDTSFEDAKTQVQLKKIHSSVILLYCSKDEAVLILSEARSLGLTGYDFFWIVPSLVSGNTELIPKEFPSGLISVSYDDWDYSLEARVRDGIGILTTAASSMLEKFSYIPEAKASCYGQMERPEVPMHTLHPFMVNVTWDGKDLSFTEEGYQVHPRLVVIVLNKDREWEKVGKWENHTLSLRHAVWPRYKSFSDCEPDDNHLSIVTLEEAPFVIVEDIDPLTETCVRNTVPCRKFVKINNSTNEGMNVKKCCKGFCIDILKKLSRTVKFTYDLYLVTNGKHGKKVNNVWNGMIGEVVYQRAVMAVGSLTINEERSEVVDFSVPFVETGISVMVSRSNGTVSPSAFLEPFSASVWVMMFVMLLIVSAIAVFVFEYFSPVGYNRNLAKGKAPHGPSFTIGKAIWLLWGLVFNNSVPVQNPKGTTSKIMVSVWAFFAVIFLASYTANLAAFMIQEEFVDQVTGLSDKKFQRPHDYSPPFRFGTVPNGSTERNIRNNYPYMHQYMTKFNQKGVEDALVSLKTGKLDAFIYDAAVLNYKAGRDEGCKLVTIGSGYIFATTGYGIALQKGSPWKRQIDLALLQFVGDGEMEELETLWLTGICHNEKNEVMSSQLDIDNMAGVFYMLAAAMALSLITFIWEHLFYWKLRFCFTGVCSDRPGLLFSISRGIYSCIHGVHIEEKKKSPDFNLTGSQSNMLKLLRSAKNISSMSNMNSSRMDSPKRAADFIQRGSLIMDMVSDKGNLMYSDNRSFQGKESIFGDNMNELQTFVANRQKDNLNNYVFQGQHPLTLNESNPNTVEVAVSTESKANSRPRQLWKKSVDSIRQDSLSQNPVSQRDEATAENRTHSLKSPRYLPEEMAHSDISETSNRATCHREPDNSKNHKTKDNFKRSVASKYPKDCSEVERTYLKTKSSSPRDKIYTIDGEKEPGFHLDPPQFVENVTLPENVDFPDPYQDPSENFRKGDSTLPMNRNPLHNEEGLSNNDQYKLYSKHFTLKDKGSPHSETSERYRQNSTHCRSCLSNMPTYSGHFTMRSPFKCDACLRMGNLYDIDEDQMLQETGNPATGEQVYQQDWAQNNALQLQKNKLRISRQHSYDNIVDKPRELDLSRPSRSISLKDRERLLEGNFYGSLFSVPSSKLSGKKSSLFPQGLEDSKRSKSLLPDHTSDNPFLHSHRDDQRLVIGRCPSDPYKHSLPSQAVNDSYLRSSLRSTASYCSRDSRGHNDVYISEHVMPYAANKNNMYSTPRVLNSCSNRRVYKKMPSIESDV

Experiments:
[1] = target: human NMDA receptor GluN1 and GluN2A subunits (Homo sapiens, UniProt Q05586+Q12879); assay: Whole-cell patch-clamp recording of NMDA receptor-mediated current in HEK293 cells; settings: compound at 10 µM, glutamic acid 100 µM
Description: The day before transfection, HEK293 cells were inoculated into a 24-well plate with a 10 mm glass slide, and the glass slide was coated with polylysine in advance to increase the cell attachment. DMEM medium containing 10% FBS was added, and the cells were cultured in an incubator at 37°C and 5% CO2. When the cells were grown to 60%-70% confluency after 18-24 hrs, TRE-GluN1-GluN2A containing human GluN1 and GluN2A, and the plasmid cDNAs of tTA and pCAG-EGFP were transfected into HEK293 cells by lipofectin transfection (TRE-GluN1-GluN2A: tTA: pCAG-EGFP was 0.2 µg : 0.2 µg : 0.02 µg). Before transfection, a new DMEM medium was changed, and 1 µg/mL Dox (doxycycline) was added to the medium to induce stable expression. 100 µM D-APV and 10 mM MgCl2 were added to avoid excitotoxicity to cells caused by NMDAR overexpression. About 24 hrs after transfection, the cells with green fluorescence were selected for electrophysiological recording.
The glass slide inoculated with HEK293 cells was placed in a recording chamber, and an extracellular solution (NaCl 140 mM, KCl 2.8 mM, HEPES 10 mM, CaCl2 1 mM, glycine 0.1 mM, pH7.2) was perfused at a speed of 4 mL/ min. The channels of the ALA-VC^3 eight-channel pressurized perfusion system were filled with an extracellular solution for washing, an extracellular solution containing glutamic acid (100 µM), and an extracellular solution containing glutamic acid and the compound to be tested respectively. The dripping rate was approximately 1 drop per sec, with a volume of 10 µL per drop. HEK293 cells with moderate green fluorescence intensity and good attachment were recorded under a fluorescence microscope. The delivery glass microtube of the perfusion system was positioned at a distance of approximately ten cell diameters away from the cell to be recorded. The drug was sprayed on the cell surface under air pressure (0.02 MPa). The glass electrode with a resistance of 4-6 MΩ was drawn with a microelectrode drawing instrument, and filled with an internal solution (CsCl 125 mM, HEPES 10 mM, EGTA 11 mM). Using a microelectrode manipulator, the glass electrode was slowly pushed to the cells. After the electrode was attached to the cell membrane, a negative pressure was applied, to form a high-resistance seal of 1 GΩ or higher between the electrode tip and the cell membrane, and then a negative pressure was applied to rupture the cell member and establish a whole-cell recording configuration. After the whole cell recording configuration was formed, the cell membrane potential was clamped at -70 mV. The extracellular solution containing 100 µM glutamic acid, the extracellular solution containing 100 µM glutamic acid and the compound to be tested, and the extracellular fluid were sprayed by the perfusion system on the surface of the cell membrane in sequence, for a time of 10 s, 20 s, and 10 s respectively. The NMDA receptor-mediated current was recorded to evaluate the inhibitory effect of the compound to be tested on NMDAR containing GluN2A. The test process was controlled by pCLAMP 10.6, and the stimulation signal is generated and the feedback signal is collected by using Digidata 1440A digital-to-analog converter.
In the test, the inhibition (%) on NMDAR-mediated current was evaluated after the compound was administered at a concentration of 10 µM, or the inhibition of the compound at 10, 3, 1, 0.3, 0.1, and 0.03 µM were tested, and fitted to obtain the IC50 value.
The inhibition percentage (inhibition rate) of the compound of the present invention on NMDAR-mediated current = (1- NMDAR-mediated current after administration/NMDAR-mediated current before administration)*100%. The inhibition rates of the compound at 10, 3, 1, 0.3, 0.1, and 0.03 µM were imported into Graphpad prism software, and subjected to Nonlinear Regression analysis. The IC50 value was automatically calculated by curve fitting.

C57BL/6J male mice [2] = assay: Forced swimming test; settings: for 1-h inhibition rate: i.p., 10 mg/kg, immobility time 1 hr after administration
Description: Test animals: C57BL/6J male mice aged 10-12 weeks were purchased from Speifu (Suzhou) Biotechnology Co., Ltd. The animals arrived at the test center before the test and acclimated in the feeding room for more than 7 days. 5 animals per cage was bred at a temperature of 23-24°C, under a 12-hr light/12-hr dark cycle. Before the behavioral test, the animals were taken to the behavioral test chamber 1 hour in advance, to acclimate to the environment.
Forced swimming test is a standard behavioral test to evaluate the depressive behavior of rodents. […] It is generally accepted that this behavioral despair is similar to the depressive symptoms in humans. The objective of this test was to evaluate the antidepressant efficacy of the compound of the present invention in C57 mice.
In the FST test, the number of animals in each group (N) was 15, the administration mode was intraperitoneal injection (i.p.) or oral gavage (p.o.), the dosage of administration was 5, 10 or 20 mg/kg (depending on the experimental needs), and the volume of administration was 10 mL/kg. The vehicle was 0.9% physiological saline.
Test process: 1. The test was carried out in a quiet environment. The animals were weighed and acclimated in the test chamber for at least 30 min before the test.
2. The compound to be tested was dissolved in 0.9% physiological saline, and the corresponding volume of the compound was given by intraperitoneal injection (i.p.) or oral gavage (p.o.) according to the weight of mice and used as the test group. 0.9% physiological saline was used as the control group, and the dosage was the target dosage of administration. The administration process was double-blinded administration.
3. 1 hr after administration, the mice were placed in a transparent plexiglass water tank with a diameter of 15 cm and a height of 30 cm, in which water was injected to a height of about 15 cm, and the water temperature was 23-25°C. The total recording time was 6 min.
4. The immobility time of mice within later 4 min was analyzed, with which the degree of helplessness and despair of mice was reflected.
5. The immobility time of mice between the administration group and the control group was compared, and the antidepressant activity (1-h inhibition rate) of the compound to be tested was analyzed. The difference was analyzed by unpaired t-test to have statistical significance, P<0.05 means that there was a significant difference. * P<0.05, **P<0.01, ***P<0.001. [formula]

C57BL/6J male mice [3] = assay: Open field test of mice
Text: Open field test is a standard behavioral method to evaluate the voluntary movement behavior and the exploratory behavior, which is widely used in the research of neurological and psychiatric diseases such as depression, anxiety, Parkinson's disease and screening of drugs acting on central nervous system.
Due to the limited tests to evaluate the hallucinogenic effect of NMDAR antagonists, the open field test is used in the present invention to evaluate whether the compound affects the spontaneous locomotor activity of mice and also used to indirectly evaluate whether the compound has hallucinogenic effect. Furthermore, the increase of spontaneous locomotor activity of mice is also considered as one of the positive symptoms of schizophrenia. Therefore, the open field test can also be used to evaluate whether the compound has the psychotomimetic-like side effects.
The animal information was the same as that in Test Example 2. The number of animals in each group (N) was 10, the administration mode was intraperitoneal injection or oral administration, the dosage of administration was 5 or 10 mg/kg, and the volume of administration was 10 mL/kg.
Test process: The open field test chamber was a soundproof chamber made of opaque plexiglass and having an inner diameter of 40*40*40 cm, and the analysis software was purchased from Noldus (Ethovision XT 11.5). The test was carried out in a quiet environment. The animals were weighed and acclimated in the test chamber for at least 30 min before the test. Before the test, the software EthoVision XT 11.5 was set, the wild-type mice were placed at the center of the bottom of the chamber, and the activity within 30 min or 20 min was recorded as the baseline. After 30 min, the mice were taken out and given corresponding doses of solvent (control group) or test compound according to their body weight. Immediately after administration, the mice were placed in the same observation chamber as that in the baseline stage, and their activities within 40 min after administration were recorded. The instrument was wiped with 75% alcohol after each test, to avoid the influence of the information left by animals in the last round (such as the smell of animals' feces and urine) on the next test result. The next round of animals were changed to continue the test. After the test, data were collected for statistical analysis. The difference was analyzed by unpaired t-test to have statistical significance, where P<0.05 means that there was a significant difference. ^# P<0.05, * P<0.05, **P<0.01, ***P<0.001, **** P<0.0001. After the test, the distance (cm) traveled by the mice in the control and test compound groups every 5 min was statistically analyzed. 33 to 36.

[4] = Pharmacokinetic test in mice
Description: The test was to investigate the pharmacokinetic characteristics of the compound of the present invention in C57BL/6J male mice after oral administration (oral gavage) and intravenous injection.
Male C57BL/6J mice aged 10-12 weeks were given the solution of the compound by intravenous injection (i.v.) and oral administration (p.o.) respectively. The vehicle for intravenous injection was 0.9% physiological saline for injection. The administration dosage volume was 5 mL/kg. The animals were allowed to normal access to food and water before administration. The vehicle for oral administration was 0.9% physiological saline for injection. The administration dosage volume was 10 mL/kg. The animals were fasted for 16 hrs before administration. 0.0333, 0.1667, 0.3330, 1, 2, 4, 6, 8, 24 hrs after administration, about 70 µL of blood was collected from the facial veins of the two groups of animals, transferred to an anticoagulant tube with EDTA-K2, placed on ice, and then centrifuged at 4 Celsius degrees in 1 hr to separate the plasma (4500 g, 15 min). The drug concentration was analyzed by LC-MS/MS, and the related pharmacokinetic parameters were calculated through the linear-log trapezoidal method by non-compartmental analysis using PKSolver2.0 kinetic software.

[5] = Solid stability test (purity, crystal form, appearance on storage)
Description: Crystal Form A of the hydrochloride, Crystal Form B of the phosphate, and Crystal Form C of the mesylate of Compound 2 and Crystal Form G of the hydrochloride, Crystal Form I of the phosphate, and Crystal Form J of the mesylate of Compound 3 were respectively packaged and stored at an acceleration condition of 40°C/75% RH, a routing condition of 25°C/60% RH, and a high-temperature condition of 60°C, and the purity, crystal form, and appearance of the compounds were evaluated at different times. Table 20. Solid stability test results of Crystal Form A of Compound 2 hydrochloride

[6] = Solution stability: purity of the solution over 24 hrs in the solubility test
Description: The solubilities of different forms of the compounds in media with different pH values were tested. The compound sample was weighed into a glass flask, and 1 mL or 2 mL of phosphate buffer pH=6.0, pure water, phosphate buffer pH=8.0, and/or 0.9% physiological saline respectively was added respectively, and magnetically stirred at 20°C for 24 hrs. A sample was taken for solubility test, and the purity of the solution over 24 hrs was tested. Table 18: Solubility test results of different crystal forms of the salts of Compound 2 in media with different pH values

[7] = Intravenous administration, 1 mg/kg

## Clc1sccc1[C@]12CCCC[C@@H]1OCCN2
[1]
  % (10 µM) inhibition on NMDAR-mediated current: 93%
C57BL/6J male mice [2]; 10 mg/kg i.p.
  antidepressant effect: obvious antidepressant effect
C57BL/6J male mice [2]
  1-h inhibition rate: 38.6%

## Clc1ccccc1[C@@]12CCCC[C@@H]1OCCN2
C57BL/6J male mice [2]
  1-h inhibition rate: 19.1%

## CN[C@]1(c2ccccc2Cl)CCCCC1=O
C57BL/6J male mice [3]; 10 mg/kg, within 5-20 min after administration, compared with the saline group
  distance traveled by the mice: significantly increases

## Fc1csc([C@@]23CCCC[C@@H]2OCCN3)c1
[1]
  % (10 µM) inhibition on NMDAR-mediated current: 85%
C57BL/6J male mice [2]; 10 mg/kg i.p.
  antidepressant effect: obvious antidepressant effect
C57BL/6J male mice [2]
  1-h inhibition rate: 58.2%

## Clc1ccccc1[C@]12CCCC[C@H]1OCCN2
C57BL/6J male mice [2]
  1-h inhibition rate: 9.1%

## [2H]C1([2H])CO[C@@H]2CCCC[C@]2(c2cccs2)N1
[1]
  % (10 µM) inhibition on NMDAR-mediated current: 91%
C57BL/6J male mice [2]; 10 mg/kg i.p.
  antidepressant effect: obvious antidepressant effect
C57BL/6J male mice [2]
  1-h inhibition rate: 27.4%

## Clc1ccccc1[C@]12CCCC[C@@H]1OCCN2
C57BL/6J male mice [2]
  1-h inhibition rate: 13.8%

## Clc1cccc(C23CCCOC2CCNC3)c1 (single isomer, unassigned)
[4]; [7]
  AUC0-last: 176 ng·h/mL
  Cl: 93 mL/min/kg
[4]; Oral administration 50 mg/kg vs i.v. 1 mg/kg
  Bioavailability (F%): 66%
[4]; Oral administration, 50 mg/kg
  AUC0-last: 5862 ng·h/mL
  T1/2: 1.21 h

## Clc1ccccc1[C@@]12CCCC[C@H]1OCCN2 [Crystal Form G of Compound 3 hydrochloride]
C57BL/6J male mice [2]; 10 mg/kg i.p.
  antidepressant effect: obvious antidepressant effect
  antidepressant effect compared with the isomer compounds 3-SS hydrochloride, 3-RR hydrochloride and 3-RS hydrochloride: significantly better
C57BL/6J male mice [2]
  1-h inhibition rate: 24.0%
[5]; 0D
  Appearance: Dry white solid powder
  Crystal Form: Crystal Form G
  Purity: 99.97%
[5]; 40°C/75% RH, 7D
  Appearance: White solid powder
  Crystal Form: Crystal Form G
  Purity: 99.98%
[5]; 60°C, 7D
  Appearance: White solid powder
  Crystal Form: Crystal Form G
  Purity: 99.99%
[6]; solution in Phosphate buffer pH=6.0, 24 h
  Purity (24 h): 99.89%
[6]; solution in Phosphate buffer pH=8.0, 24 h
  Purity (24 h): 99.56%
[6]; solution in Pure water pH=6.8, 24 h
  Purity (24 h): 99.95%
[6]; summary in words
  solution stability: good
C57BL/6J male mice [3]; intraperitoneal administration of 10 mg/kg, compared with the vehicle group
  distance traveled by the mice: no significant difference

## c1cc([C@@]23CCCC[C@H]2OCCN3)cs1
[1]
  % (10 µM) inhibition on NMDAR-mediated current: 83%
C57BL/6J male mice [2]; 10 mg/kg i.p.
  antidepressant effect: obvious antidepressant effect
C57BL/6J male mice [2]
  1-h inhibition rate: 36.5%
